Target: T1, ovine COX-2 (Ovis aries, UniProt P79208)
T1 sequence (P79208 17-603): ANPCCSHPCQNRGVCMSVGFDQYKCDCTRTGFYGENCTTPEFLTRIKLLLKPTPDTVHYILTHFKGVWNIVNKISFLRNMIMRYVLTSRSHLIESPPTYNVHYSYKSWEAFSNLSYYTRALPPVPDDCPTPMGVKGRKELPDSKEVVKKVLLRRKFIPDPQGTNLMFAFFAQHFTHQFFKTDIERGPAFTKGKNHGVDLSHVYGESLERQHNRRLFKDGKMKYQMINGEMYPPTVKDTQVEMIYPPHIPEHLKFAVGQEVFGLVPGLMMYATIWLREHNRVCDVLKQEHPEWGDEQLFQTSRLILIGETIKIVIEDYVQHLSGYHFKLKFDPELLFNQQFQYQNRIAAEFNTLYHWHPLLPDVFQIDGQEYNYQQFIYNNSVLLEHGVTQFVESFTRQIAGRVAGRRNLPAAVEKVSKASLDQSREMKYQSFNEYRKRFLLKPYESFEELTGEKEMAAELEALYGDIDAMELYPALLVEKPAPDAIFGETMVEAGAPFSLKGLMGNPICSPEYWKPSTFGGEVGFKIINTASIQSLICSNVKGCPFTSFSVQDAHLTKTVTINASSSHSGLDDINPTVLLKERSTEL
Assay: biochemical

| SMILES | IC50 |
| --- | --- |
| NS(=O)(=O)c1ccc(-c2c(-c3ccccc3)noc2CO)cc1 [Example 2a, 4-(5-(Hydroxymethyl)-3-phenylisoxazol-4-yl)benzenesulfonamide, reference compound] | 24 µM |
| NS(=O)(=O)c1ccc(-n2nc(CO)cc2-c2ccc(Cl)cc2)cc1 [Example 1a, 4-(5-(4-Chlorophenyl)-3-(hydroxymethyl)-3-hydropyrazolyl) benzenesulfonamide, reference compound] | 3.3 µM |
| Cc1onc(-c2ccccc2)c1-c1ccc(S(N)(=O)=O)cc1 [Example 3e, 4-(5-(Methyl)-3-phenylisoxazol-4-yl)benzenesulfonamide, reference compound] | 0.006 µM |
